This is an account of results in DBAASP.

Values after ≈ are worked out from the molar mass of the structure shown.

Holding throughout (test): ≥ marks a high value that may be exact or a test limit, other limits are often not marked, values filed in µg/mL are converted to µM
Test [1] relates to Pseudomonas aeruginosa ATCC 27853.
A further test has as its system Escherichia coli K-12.
Test [2] deals with Staphylococcus aureus ATCC 12600.

By MIC is commonly meant the least concentration at which growth counts as inhibited. Low values mean a more susceptible organism, high ones a less susceptible organism. Turning to `CC[C@H](C)[C@H](NC(=O)[C@H](C)NC(=O)[C@H](CCCCN)NC(=O)[C@H](Cc1c[nH]c2ccccc12)NC(=O)[C@H](CC(N)=O)NC(=O)[C@@H](N)CC(C)C)C(=O)N[C@@H](CC(C)C)C(=O)N[C@@H](CCCCN)C(=O)N[C@@H](Cc1cnc[nH]1)C(=O)N[C@H](C(=O)N[C@H](C(=O)N[C@@H](CCCCN)C(=O)O)[C@@H](C)CC)[C@@H](C)CC` [LNWKAILKHIIK], the MIC in test [1] is 16 µM (≈ 23.6 µg/mL); against Escherichia coli K-12, 16 µM (≈ 23.6 µg/mL); in test [2] it was at least 128 µM.
For the compound `CC[C@H](C)[C@H](NC(=O)[C@@H]1CCCN1C(=O)[C@H](CCCCN)NC(=O)[C@H](CC(C)C)NC(=O)[C@H](C)NC(=O)[C@@H](NC(=O)[C@H](Cc1cnc[nH]1)NC(=O)[C@H](CC(C)C)NC(=O)[C@@H](NC(=O)[C@@H](NC(=O)[C@H](CCCN=C(N)N)NC(=O)[C@H](C)NC(=O)[C@@H]1CCCN1C(=O)[C@H](CO)NC(=O)[C@H](CCCCN)NC(=O)[C@H](Cc1ccccc1)NC(=O)[C@@H](NC(=O)[C@H](CCCCN)NC(=O)[C@H](CC(C)C)NC(=O)[C@H](Cc1ccccc1)NC(=O)[C@H](CO)NC(=O)[C@H](CCCCN)NC(=O)[C@H](Cc1c[nH]c2ccccc12)NC(=O)[C@@H](N)CCCCN)[C@@H](C)O)[C@@H](C)O)C(C)C)[C@@H](C)O)C(=O)N[C@@H](CO)C(=O)N[C@@H](CO)C(=O)O` [KWKSFLKTFKSPARTVLHTALKPISS], the MIC with Escherichia coli K-12 was 16 µM (≈ 47.6 µg/mL); in test [2] it was at least 128 µM.
